Laboratory results taken from patent EP0635577B1, “Screen for inhibitors of melanin biosynthesis” (BASF AKTIENGESELLSCHAFT, priority 1993, dated 1995).

Tested on: Cladosporium cucumerinum
Assay: melanin biosynthesis inhibition screen, disk diffusion assay on solidified culture
Type: cell-based
Settings: C. cucumerinum Antibiotic Panel; effect on growth and pigmentation in words; screen of Example 1
Description: Potato dextrose medium (PDM) for the screening test is prepared by melting
The mixture is autoclaved as 150 ml aliquots at 121°C for 25 minutes.
A chloramphenicol stock solution is prepared to contain 15 mg chloramphenicol per mL absolute ethanol and is stored at -20°C.
Conidia from Cladosporium cucumerinum, 10^7/mL in 0.03% Tween 20™, retain their viability for at least 12 weeks of storage in 1.8 ml cryovials at -85°C. Inoculum for running the screen are raised once every three months and stored without a cryoprotectant at the working concentration of 10^7 conidia/mL.
Fresh inoculum suspensions are prepared from conidial suspensions stored at -85°C. A cryovial is thawed by hand-heat, and 200 uL spread on the surface of PDA in 9 cm Petri dishes. Plates are placed in a resin box (to prevent fungal escape) and incubated at room temperature, 40 cm below laboratory fluorescent lights. Seven days later conidia are collected. Five mL of 0.03% Tween 20™ is added to each plate, and the conidia are released by rubbing the mycelium with a glass rod. The suspension is passed through a layer of sterile Miracloth™ and the concentration adjusted to 10^7 conidia/mL in 0.03% Tween 20™ using a haemocytometer. […]
Test compounds are applied to 0.63 cm (¼ inch) filter disks. […] The plate is read 40 hours later. […]

CC[C@H]1OC(=O)[C@H](C)C(=O)[C@H](C)[C@@H](O[C@@H]2O[C@H](C)C[C@H](N(C)C)[C@H]2O)[C@@H](C)C[C@@H](C)C(=O)/C=C/[C@]1(C)O [Picromycin]
Observation: no effect on growth or pigmentation
